Source: US8097238B2, “Cell targeting conjugates” (Peter MacCallum Cancer Institute, priority 2004, dated 2012)

Chains of the proteins cited; added tags and fusions are not shown.
UniProt P02786, whole entry: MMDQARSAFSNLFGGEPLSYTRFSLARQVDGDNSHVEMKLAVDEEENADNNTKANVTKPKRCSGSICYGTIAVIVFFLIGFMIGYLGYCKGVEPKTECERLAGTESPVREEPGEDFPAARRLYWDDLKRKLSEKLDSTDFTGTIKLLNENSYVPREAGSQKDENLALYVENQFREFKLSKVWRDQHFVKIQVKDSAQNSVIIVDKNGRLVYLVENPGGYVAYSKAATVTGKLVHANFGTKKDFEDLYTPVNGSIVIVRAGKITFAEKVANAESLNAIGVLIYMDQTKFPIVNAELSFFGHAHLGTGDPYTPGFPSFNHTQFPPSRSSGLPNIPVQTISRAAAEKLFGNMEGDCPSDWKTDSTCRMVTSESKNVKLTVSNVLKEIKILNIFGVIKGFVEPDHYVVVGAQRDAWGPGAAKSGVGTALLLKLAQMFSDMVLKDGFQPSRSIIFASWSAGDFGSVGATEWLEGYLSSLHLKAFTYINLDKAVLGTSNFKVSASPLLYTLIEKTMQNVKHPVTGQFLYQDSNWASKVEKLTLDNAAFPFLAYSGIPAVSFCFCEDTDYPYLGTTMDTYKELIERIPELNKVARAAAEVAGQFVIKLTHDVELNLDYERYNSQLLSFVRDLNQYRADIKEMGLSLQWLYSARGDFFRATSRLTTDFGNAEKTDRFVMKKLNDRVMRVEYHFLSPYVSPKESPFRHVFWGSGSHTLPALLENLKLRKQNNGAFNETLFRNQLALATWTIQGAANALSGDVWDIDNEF

Tests used:
[1] = target: T1, cell-surface transferrin receptors on K562 cells (Homo sapiens, UniProt P02786); assay: Receptor binding radioassay of labelled transferrin conjugates on K562 cells; conditions: K562 cells (5×10^5), 10.3 nM, 90 minutes at 4° C.; 1-3 iodoHoechst moieties per transferrin
T1 construct: endogenous in cells; host or cells: K562 cells (intact, washed)
Description: An important requirement of immunoconjugates is that the protein moieties of the conjugates retain the binding affinity and specificity of the unmodified proteins for their respective cell-surface receptors or antigens. The binding characteristics of the meta-^127I/^125I-iodoHoechst-transferrin conjugates were compared to the binding characteristics of ^125I-transferrin to cell-surface transferrin receptors using receptor binding radioassays. For investigation of the binding of ^125I-transferrin and meta-^127I/^125I-iodoHoechst-transferrin conjugates, K562 cells were washed three times with 1% BSA/PBS. A 100 μl aliquot of 1% BSA/PBS or 100 μl of 1% BSA/PBS containing unlabelled human diferric transferrin (100-fold molar excess to ^125I-transferrin and meta-^127I/^125I-iodoHoechst-transferrin conjugates, for estimation of non-specific binding) was added to cells (5×10^5) in 200 μl 1% BSA/PBS. A 200 μl aliquot of ^125I-transferrin or meta-^127I/^125I-iodoHoechst-transferrin conjugates was added to appropriate samples. The samples were incubated for 90 minutes at 4° C. and the cell-surface bound and free ^125I-labelled ligands were separated by centrifugation at 10000×g for 3 minutes through a 50% dibutyl pthalate/50% dioctyl phthalate oil-layer (density 1.012 g/l) and the ^125I-activity in the cell pellets was determined in a β-counter.

[2] = target: T1, cell-surface transferrin receptors on K562 cells; assay: Competition by unlabelled conjugates for ^125I-transferrin binding sites on K562 cells; conditions: vs 3 nM ^125I-diferric transferrin, 0° C. for 90 minutes, one-site competition model, read-out: equilibrium inhibition constant
Description: The characteristics of binding of the meta-^127I/^125I-iodoHoechst-transferrin conjugates to cell-surface transferrin receptors on K562 cells were also analysed by competition binding experiments (competition by unlabelled conjugates for ^125I-transferrin binding sites). K562 cells were washed three times with ice-cold 1% (w/v) bovine serum albumin (BSA) in serum-free RPMI 1640 medium containing 20 mM 4-(-2-hydroxyethyl)-1-piperazineethanesulfonic acid (HEPES), pH 7.4 and 80 I.U./ml gentamicin (RPMI 1640/BSA). Cell pellets (5×10^5 per sample) were suspended in 50 μl of assay buffer (200 mM Tris-HCl, 150 mM NaCl, pH 7.4, for estimation of total binding) containing a series of concentrations (0-500 nM) of the meta-^127I-iodoHoechst-transferrin conjugates (competing ligand; conjugation number 1.2, 1.1 and 2.9 for the disulphide, acylhydrazone and amide linked conjugates, respectively) was added to the K562 cells. This was followed by addition of a 50 μl aliquot of ^125I-diferric transferrin (3 nM final concentration; specific activity 30.5 Ci/mmole). The samples were incubated at 0° C. for 90 minutes and the cell-surface bound and free ^125I-diferric transferrin was separated by centrifugation at 10000×g for 3 minutes through a mineral oil-layer as described above. Following excision of the tips of the tubes or removal of the supernatant and most of the mineral oil, the ^125I-activity in the cell-pellets was counted in a β-counter. To correct for non-specific binding, assays were performed in parallel in the presence of a 50-fold molar excess of unlabelled diferric transferrin. Specific ^125I-diferric transferrin binding was represented by the difference of the total and non-specific binding. Control assays, in which the unconjugated meta-^127I-iodoHoechst analogue, at an equivalent concentration to the concentration of bisbenzimidazole moiety in the meta-^127I-iodoHoechst-transferrin conjugates was used as the competing ligand, were also performed. […]
The data derived from the competition binding studies were analyzed using a one-site competition model. […]

Substance | binding retained relative to unconjugated ^125I-transferrin to specific receptors [1] | Ki [2] [nM]
acylhydrazone linked meta-^127I/^125I-iodoHoechst-transferrin conjugate: meta-^127I/^125I-iodoHoechst conjugated to thiolated transferrin via an acylhydrazone linkage (Example 15, FIG. 3) | ~93% | 3.9 ± 0.9
amide linked meta-^127I/^125I-iodoHoechst-transferrin conjugate: meta-^127I/^125I-iodoHoechst conjugated to transferrin via an amide linkage (Example 16, FIG. 4) | approximately 98% | 3.1 ± 1.1
disulphide linked meta-^127I/^125I-iodoHoechst-transferrin conjugate: meta-^127I/^125I-iodoHoechst conjugated to thiolated transferrin via a disulphide linkage (Example 14, FIG. 2) | ~88% | 4.8 ± 1.3
